Measurements reported in patent US20260384438A1, “PYRROLOPYRIMIDINE CARBOXAMIDES” (published 2026).
Where “and” joins values, the source holds several entries; their conditions need not be identical. Equal entries are not always repeated. Where two headings read alike, the source gives them in different places.

By UniProt entry, the sequences of proteins in these tests, tags left out. Residues count along the entry.
UniProt P33261, whole entry: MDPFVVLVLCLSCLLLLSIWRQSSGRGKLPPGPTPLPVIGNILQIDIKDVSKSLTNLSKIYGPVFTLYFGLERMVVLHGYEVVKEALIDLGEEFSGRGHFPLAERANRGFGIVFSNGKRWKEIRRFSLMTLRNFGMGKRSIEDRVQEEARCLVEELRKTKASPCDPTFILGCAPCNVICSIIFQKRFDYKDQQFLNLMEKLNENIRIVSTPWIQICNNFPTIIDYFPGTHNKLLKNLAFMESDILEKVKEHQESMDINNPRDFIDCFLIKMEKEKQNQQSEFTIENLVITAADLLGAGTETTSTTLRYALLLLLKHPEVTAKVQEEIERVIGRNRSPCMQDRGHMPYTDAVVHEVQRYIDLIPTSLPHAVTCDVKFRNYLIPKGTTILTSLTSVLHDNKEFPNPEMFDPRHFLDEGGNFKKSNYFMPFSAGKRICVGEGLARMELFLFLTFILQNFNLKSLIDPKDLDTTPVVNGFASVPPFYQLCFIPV
UniProt Q99640, whole entry: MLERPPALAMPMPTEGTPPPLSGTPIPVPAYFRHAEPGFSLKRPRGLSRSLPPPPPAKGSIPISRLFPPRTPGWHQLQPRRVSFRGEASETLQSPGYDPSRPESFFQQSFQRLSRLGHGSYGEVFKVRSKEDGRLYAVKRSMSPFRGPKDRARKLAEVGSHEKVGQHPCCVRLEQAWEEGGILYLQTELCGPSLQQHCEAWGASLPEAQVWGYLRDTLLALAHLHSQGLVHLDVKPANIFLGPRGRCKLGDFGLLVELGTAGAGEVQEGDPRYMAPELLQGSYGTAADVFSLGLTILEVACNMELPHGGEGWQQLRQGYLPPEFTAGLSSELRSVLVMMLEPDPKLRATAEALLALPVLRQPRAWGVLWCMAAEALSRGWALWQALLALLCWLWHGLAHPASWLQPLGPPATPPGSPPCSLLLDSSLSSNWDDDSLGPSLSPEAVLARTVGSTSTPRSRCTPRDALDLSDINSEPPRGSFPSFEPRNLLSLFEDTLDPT
UniProt P54753, 34-998 limits assumed: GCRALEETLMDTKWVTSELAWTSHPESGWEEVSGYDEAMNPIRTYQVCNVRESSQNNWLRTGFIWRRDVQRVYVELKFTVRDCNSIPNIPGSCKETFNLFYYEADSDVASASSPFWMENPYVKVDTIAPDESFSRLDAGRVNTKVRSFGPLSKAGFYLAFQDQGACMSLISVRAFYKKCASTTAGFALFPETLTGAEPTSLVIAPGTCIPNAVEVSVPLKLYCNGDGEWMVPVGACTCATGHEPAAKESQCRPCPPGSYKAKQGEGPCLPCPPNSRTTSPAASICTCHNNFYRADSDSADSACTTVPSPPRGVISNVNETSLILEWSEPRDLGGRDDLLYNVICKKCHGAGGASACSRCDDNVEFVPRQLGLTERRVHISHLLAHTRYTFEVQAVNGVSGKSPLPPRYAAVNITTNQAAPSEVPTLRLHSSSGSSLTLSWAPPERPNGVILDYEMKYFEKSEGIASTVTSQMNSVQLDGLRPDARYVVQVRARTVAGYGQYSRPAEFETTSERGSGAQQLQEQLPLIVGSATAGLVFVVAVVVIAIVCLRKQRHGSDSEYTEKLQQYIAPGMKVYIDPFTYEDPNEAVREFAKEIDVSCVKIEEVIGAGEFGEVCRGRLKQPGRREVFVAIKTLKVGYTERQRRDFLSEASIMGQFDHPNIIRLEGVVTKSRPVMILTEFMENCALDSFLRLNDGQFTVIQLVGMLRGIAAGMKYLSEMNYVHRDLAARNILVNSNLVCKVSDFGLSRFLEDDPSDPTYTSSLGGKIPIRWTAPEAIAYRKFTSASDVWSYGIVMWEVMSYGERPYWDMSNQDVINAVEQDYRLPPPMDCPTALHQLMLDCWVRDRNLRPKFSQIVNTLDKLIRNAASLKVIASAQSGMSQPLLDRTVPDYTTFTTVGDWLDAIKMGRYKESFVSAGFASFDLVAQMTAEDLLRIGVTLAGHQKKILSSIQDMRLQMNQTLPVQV

Assays:
CYP2C19 = CYP2C19 (Homo sapiens, UniProt P33261); assay: CYP inhibition, CYP2C19; settings: read-out: CYP2C19 inhibition IC50; HLM, S-mepheytoin 35 μM
[1] = target: CDK1 pThr14 (PKMYT1 substrate), FUOV-1 cells (Homo sapiens, UniProt Q99640); assay: Functional CDK1 pThr14 AlphaLISA assay in FUOV-1 cells; settings: read-out: pCDk1(Thr14) INHIBITION IC50, 2 h
[2] = In vitro biotransformation in mouse hepatocytes; settings: 5 μM, 180 min
SW620 tumors = assay: Pharmacodynamic effect in human colorectal SW620 xenograft model (athymic nude mice), immunoblotting
OVCAR3 (CCNE1 amp) = assay: CellTiter-Glo growth inhibition, OVCAR3 (CCNE1 amp)
[3] = In vivo pharmacokinetics comparing formulations in SCID mouse, 300 mg/kg P.O.; settings: female SCID mice, P.O. 300 mg/kg
EPHB3 = EPHB3 (Homo sapiens, UniProt P54753); assay: NanoBRET target engagement in HEK293T cells, EPHB3; settings: read-out: EPHB3 INHIBITION IC50, 2 h
[4] = In vivo pharmacokinetics in female SCID mice (P.O., 10/30/100 mg/kg)
Caco-2 cell permeability = settings: 10 μM
[5] = 100 mg/kg BID 3 days + irinotecan hydrochloride 50 mg/kg

Cc1nc(C(F)(F)F)c2c(C(N)=O)c(N)n(-c3c(C)ccc(O)c3C)c2n1 (single isomer, unassigned)
IC50 (CYP2C19): > 30000 nM | IC50 [1]: 40 nM | Glucuronidation [2]: M (Major (>10%)) | DNA damage formation (gH2AX), potentiation by addition to irinotecan hydrochloride (SW620 tumors; [5]): not further potentiated | mitotic population (phospho-histone H3 Ser10) (SW620 tumors; [5]): did not result in a reduced mitotic population | PKMYT1 target engagement (Phospho-CDK1 Thr14) (SW620 tumors; 100 mg/kg BID 3 days, absence or presence of irinotecan hydrochloride): PKMYT1 target engagement | GI50 (OVCAR3 (CCNE1 amp); read-out: GI50 VALUES, individual values, 7 days CTG): 2880 nM and 1890 nM and 1060 nM | GI50 (OVCAR3 (CCNE1 amp); read-out: MEAN GI50 (N = 3), mean of N = 3, 7 days CTG): 1940 nM | AUC ([3]; DMSO/CAPTISOL/WFI): 141.4 µM·h | Cmax ([3]; DMSO/CAPTISOL/WFI): 33.9 µM | Tmax ([3]; DMSO/CAPTISOL/WFI): 30 min | AUC ([3]; HPMC/TWEEN 80): 197.8 µM·h | Cmax ([3]; HPMC/TWEEN 80): 45.7 µM | Tmax ([3]; HPMC/TWEEN 80): 30 min | IC50 (EPHB3): 3960 nM | AUC ([4]; P.O. 10 mg/kg): 4.2 µM·h | Cmax ([4]; P.O. 10 mg/kg): 1.3 µM | Tmax ([4]; P.O. 10 mg/kg): 30 min | t1/2 ([4]; P.O. 10 mg/kg): 264 min | AUC ([4]; P.O. 30 mg/kg): 9.1 µM·h | Cmax ([4]; P.O. 30 mg/kg): 3.6 µM | Tmax ([4]; P.O. 30 mg/kg): 30 min | t1/2 ([4]; P.O. 30 mg/kg): 276 min | AUC ([4]; P.O. 100 mg/kg): 25 µM·h | Cmax ([4]; P.O. 100 mg/kg): 8.7 µM | Tmax ([4]; P.O. 100 mg/kg): 30 min | t1/2 ([4]; P.O. 100 mg/kg): 282 min | Caco-2 A-B Papp (Caco-2 cell permeability; 2 h, 37 °C): 30.060 1E−6.cm/s | Caco-2 EFFLUX RATIO (Caco-2 cell permeability; Papp(B to A)/Papp(A to B)): 1.84
